One compound from ChEMBL document CHEMBL1137486, “N4-phenyl modifications of N2-(2-hydroxyl)ethyl-6-(pyrrolidin-1-yl)-1,3,5-triazine-2,4-diamines enhance glucocerebrosidase inhibition by small molecules with potential as chemical chaperones for Gaucher disease” (Bioorg Med Chem Lett, 2007) can be followed below.

For the test, the target named is T1, Lysosomal acid glucosylceramidase (Homo sapiens, UniProt P04062).
T1 sequence (P04062 whole entry): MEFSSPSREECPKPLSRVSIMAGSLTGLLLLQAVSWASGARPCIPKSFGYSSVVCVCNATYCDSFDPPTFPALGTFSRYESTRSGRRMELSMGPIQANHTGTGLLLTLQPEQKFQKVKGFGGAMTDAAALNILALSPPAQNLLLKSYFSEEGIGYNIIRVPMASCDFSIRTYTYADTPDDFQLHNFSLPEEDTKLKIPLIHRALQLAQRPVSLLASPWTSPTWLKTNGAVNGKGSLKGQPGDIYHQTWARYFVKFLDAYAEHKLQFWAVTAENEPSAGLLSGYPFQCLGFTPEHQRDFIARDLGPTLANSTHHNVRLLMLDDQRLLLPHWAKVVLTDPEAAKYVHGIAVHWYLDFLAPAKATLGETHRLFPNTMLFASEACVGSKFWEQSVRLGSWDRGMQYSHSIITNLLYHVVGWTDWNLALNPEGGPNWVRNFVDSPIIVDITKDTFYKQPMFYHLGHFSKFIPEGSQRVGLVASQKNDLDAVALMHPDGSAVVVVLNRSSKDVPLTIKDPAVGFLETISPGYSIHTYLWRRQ
The test is described as follows: Inhibition of glucocerebrosidase.

`COc1ccc(Cl)cc1Nc1nc(NCCO)nc(N2CCCC2)n1`: it took 700 nM to reach half-maximal inhibition (IC50).
